# Assay results: patent US11352392B2, “Artificially synthesized peptide H-473 and use thereof” (CHINA WEST NORMAL UNIVERSITY, priority 2018, dated 2022)
# Assays:
# [1] = test system: MGC-803 xenograft tumors; assay: Pharmacodynamic experiment on human gastric cancer MGC-803 xenograft tumor in nude mice; type: in vivo, BALB/c nude mice; conditions: MGC-803 xenograft nude mice, H-473 1 μg/kg or Interleukin-2 200,000 IU/kg, tail vein, once a day for 10 times
# Procedure: (§1) Model control group: physiological saline, 0.1 ml/10 g, once a day for 10 times.
# (§2) Interleukin-2: 20,000 IU/ml interleukin-2 solution, injected into tail vein, 0.1 ml/10 g, once a day for 10 times.
# Peptide H-473-1μg/kg group: 0.1 μg/ml peptide H-473 solution, injected into the tail vein, 0.1 ml/10 g, once a day for 10 times.
# The cultured MGC-803 cell suspension was collected at a concentration of 1×10^7 cells/ml and inoculated subcutaneously in the right axilla of nude mice, 0.1 ml/mouse.
# Diameters of the xenograft tumors in nude mice were measured with a vernier caliper. 8 days after inoculation, the animals were randomized into groups with 8 in each group when the tumors grew to 100-150 mm^3. At the same time, each group of nude mice began to be dosed. The dosage regimen can be found in “Groups and dosage regimen”. The anti-tumor effect of the test sample was dynamically observed by using a method of measuring tumor diameter. 10 days after dosing, observation was continued for 4 days, and then the nude mice were sacrificed, and tumor mass was surgically removed and weighed.
# (§3) Tumor volume (TV) was calculated according to the following formula: TV=½×a×b^2, wherein, a and b represent length and width, respectively.
# (§4) Relative tumor volume (RTV) was calculated according to the measured results according to the following formula: RTV=Vt/V0, wherein, V0 is tumor volume measured when the animals are divided into cages and dosed (i.e., d0) and Vt is tumor volume at each measurement.
# (§5) Evaluation indicator of anti-tumor activity: relative tumor proliferation rate T/C (%) was calculated according to the following formula: […]
# (§6) Evaluation indicator of antitumor activity: tumor growth inhibition rate (%) was calculated according to the following formula: […]
# Mean values were expressed as X±SD, inter-group analysis was statistically processed using t-test, and results were statistically analyzed using SPSS (Staffstical Package for the Social Science) 17.0.
# [2] = test system: cfpac-1 xenograft tumors; assay: Pharmacodynamic experiment on cfpac-1 xenograft tumor in nude mice; type: in vivo, BALB/c nude mice; conditions: cfpac-1 xenograft nude mice, H-473 1 μg/kg or Interleukin-2 200,000 IU/kg, tail vein, once a day for 10 times
# Procedure: as §1, §2
# Peptide H-473-1 μg/kg group: 0.1 μg/ml peptide H-473 solution, injected into the tail vein, 0.1 ml/10 g, once a day for 10 times.
# The cultured cfpac-1 cell suspension was collected at a concentration of 1×10^7 cells/ml and inoculated subcutaneously in the right axilla of nude mice, 0.1 ml/mouse.
# Diameters of the xenograft tumors in nude mice were measured with a vernier caliper. 17 days after inoculation, the animals were randomized into groups with 8 in each group when the tumors grew to 100-150 mm^3. […]
# as §3, §4, §5, §6
substance,measurement,setting,value
Interleukin-2,Tumor inhibition rate,[1],60.9%
same,Tumor weight,[1],1.023 ± 0.121 g
same,Tumor inhibition rate,[1]; listed as IL-2,60.9%
same,Tumor inhibition rate,[2],56.1%
same,Tumor inhibition rate,[2]; listed as IL-2,68.04%
